Measurements: BindingDB's records for doi:10.1021/cb4002602 (National University of Singapore, 2013)

Target: Protein disulfide-isomerase (Bos taurus) (UniProt P05307)
Assay: The assay was carried out in 384-well plates according to literature procedures [46]. Each well contained 100mM sodium phosphate and 0.2mM EDTA pH 7.0. 10ng PDI was pre-incubated with various concentration of probes (4% DMSO) in 20uL buffer for 30 min at 37 degrees Celsius, followed by the addition of insulin (0.16mM final concentration) and DDT (1mM

C#CCOC(=O)C1(C)c2[nH]c3ccccc3c2CCN1C(=O)CCl (stereo unspecified) [16F16A]
IC50: 108 µM
